In brackets after ≈: the same amount, converted by molar mass. Marks after values point to notes of the source that are not given here.
Columns and labels:
[1] = system: E. coli lpxC mutant D22 (strain MG1655); experiment: MIC, drug-hypersensitive E. coli lpxC mutant; assay type: cell-based, Escherichia coli; settings: broth micro-dilution
Procedure: (§1) The four different strains analyzed were wild type (wt) Staphylococcus aureus (strain ATCC 29213), wt Escherichia coli (strain MG1655, K12), a drug-hypersensitive E. coli lpxC mutant D22 (strain MG1655) and an efflux-defective E. coli ΔtolC mutant (strain MG1655). These were grown in cation-adjusted Mueller Hinton II media (MH II, Nordic Biolabs), the standard medium for antibiotic susceptibility testing. For overnight cell cultures one colony from a MH II (Nordic Biolabs) plate was inoculated in 1 ml MH II media in a 10 ml tube and the bacteria was incubated at 37 °C shaking at 190 rpm. Cells from the overnight culture was used for MIC determinations and time-kill experiments.
(§2) The minimal inhibitory concentrations (MIC) of the drugs were measured in 96-well round-bottom microtiter plates using cation-adjusted Mueller-Hinton II (MH II) media. All measurements were done with at least three biological replicates. Briefly, bacterial colonies from a non-selective agar plate were re-suspended in 0.9% NaCl to 0.5 McFarland ( ≅1.5×10^8 cfu/ml). The cell suspension was further diluted to ≅5×10^5 cfu/ml (50 µl of bacterial suspension to 10 ml of MHII) and then 90 µl of cell suspension ( ≅5×10^5 […]) was added to each well. […] The MIC value was determined visually as the lowest concentration of drug that inhibited growth.

Chains of the proteins cited; added tags and fusions are not shown. Lines headed by an entry give the natural chain unless they say otherwise; changes in a name come on top.
UniProt P07012, whole entry: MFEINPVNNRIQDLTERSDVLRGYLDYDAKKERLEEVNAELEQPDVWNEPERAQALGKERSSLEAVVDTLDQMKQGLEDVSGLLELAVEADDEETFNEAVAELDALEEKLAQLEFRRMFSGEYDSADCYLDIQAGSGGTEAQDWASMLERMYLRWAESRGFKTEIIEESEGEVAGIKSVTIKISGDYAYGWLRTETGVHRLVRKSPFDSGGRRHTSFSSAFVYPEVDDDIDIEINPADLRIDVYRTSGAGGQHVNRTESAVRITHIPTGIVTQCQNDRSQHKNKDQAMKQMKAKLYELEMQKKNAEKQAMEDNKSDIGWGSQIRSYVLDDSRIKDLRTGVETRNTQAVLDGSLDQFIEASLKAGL
UniProt P0A7I0, whole entry: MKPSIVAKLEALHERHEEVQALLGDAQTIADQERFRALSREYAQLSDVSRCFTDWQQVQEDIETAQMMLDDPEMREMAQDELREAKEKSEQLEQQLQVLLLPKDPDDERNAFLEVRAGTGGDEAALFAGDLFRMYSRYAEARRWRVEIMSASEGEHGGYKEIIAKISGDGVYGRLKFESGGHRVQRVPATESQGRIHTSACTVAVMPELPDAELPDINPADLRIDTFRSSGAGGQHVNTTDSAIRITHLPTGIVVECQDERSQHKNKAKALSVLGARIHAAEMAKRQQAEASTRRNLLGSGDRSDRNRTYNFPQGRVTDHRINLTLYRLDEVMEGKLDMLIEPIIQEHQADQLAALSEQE

[2] = system: E. coli 70S ribosome; experiment: Di- and tripeptide formation assay (peptide bond formation and translocation); settings: for Apparent rate constant ka, tripeptide bond formation: fMet-Leu-Leu; for Apparent rate constant ka, tripeptide bond formation / Apparent rate constant ka, dipeptide bond formation: 0.5 mM compound, 2% DMSO, quench flow; for Apparent rate constant ka, dipeptide bond formation: fMet-Leu; for Inhibition of dipeptide or tripeptide formation: highest concentration 500 μM, 37 °C
Procedure: Ribosomal activity for peptide bond formation and translocation was tested by di- and tripeptide formation assays. For that, an initiation complex and an elongation mix were first prepared in HEPES-Polymix buffer (pH 7.5). The initiation complex contained E. coli 70S ribosome (1 μM), IF1, IF2 and IF3 (all 2 μM), XR7 mRNA encoding Met-Leu-Leu (10 μM) with sequence UAAGGAG[…] and 1 μM [^3H]-fMet-tRNA^fMet. The elongation mix was prepared by mixing 10 μM EF-Tu, 10 μM EF-Ts, 10 μM EF-G, 10 μM tRNA^Leu, 0.5 mM Leu amino acid and 1 unit of Leu-tRNA synthetase. All reactions contained 1 mM GTP and ATP, 10 mM phosphoenol pyruvate, 50 mg/ml pyruvate kinase and 2 mg/ml myokinase. To test the effects, 0.5 mM of the anti-RF2 compounds 115 and 161 was added to both IC and EC together with DMSO as control. Both the mixes were incubated separately at 37 °C for 15 min. The reaction was started by mixing equal volumes of the IC and EC at 37 °C in a quench flow apparatus and was quenched by mixing 17% formic acid after different time points. The peptides were isolated from the ribosome by KOH treatment and applied to reverse phase HPLC separation with in-line radioactivity detection as described earlier.

[3] = target: E. coli RF2 (Escherichia coli, UniProt P07012); settings: pH 6.5
[4] = target: RF1 from E. coli (Escherichia coli, UniProt P0A7I0)
[5] = system: E. coli ΔtolC mutant (strain MG1655); experiment: MIC, efflux-defective E. coli ΔtolC mutant; assay type: cell-based, Escherichia coli; settings: broth micro-dilution
Procedure: as §1, §2

[6] = system: Escherichia coli strain MG1655; experiment: MIC on bacterial growth, wt E. coli (broth micro-dilution); assay type: cell-based; settings: initial screen, > = compound precipitated at higher concentrations in cell culture media
Procedure: as §1, §2

[7] = system: ΔtolC efflux-defective E. coli; experiment: Time-kill assay, E. coli ΔtolC; assay type: cell-based, Escherichia coli; settings: tolC-defective E. coli; 1x or 2x MIC; cell number decreased during first four hours, regrowth after about eight hours
Procedure: To determine if the compounds are bacteriostatic or bactericidal, time-kill assays were performed with wt S. aureus and a ΔtolC efflux-defective E. coli. The initial inoculums were diluted from triplicate biological replicates of overnight cell cultures inoculated with one colony in 1 ml MH II medium. The cell inoculum was diluted 1:1000 in 1 ml MH II medium and the cell culture was allowed to recover for 30 minutes before the compounds were added at a final concentration of 1x MIC (250 mg l^−1 for compound 115 and 125 mg l^−1 for compound 161 for both bacterial strains) or 2x MIC. As a control of the possible effect of DMSO on cell growth, the positive growth controls (three biological replicates) contained the same DMSO concentration as the cells with compound added (2x MIC). Samples (20 µl) were withdrawn before the compound was added and also after 1, 2, 4, 8 and 24 h after addition. The cells were diluted in 0.9% NaCl before they were plated on non-selective agar plates using glass beads. Colonies were counted after approximately 20 h.

[8] = target: RF2 (Escherichia coli, UniProt P07012)

| SMILES | MIC E. coli lpxC [1] | Apparent rate constant ka, tripeptide bond formation [2] | Apparent rate constant ka, dipeptide bond formation [2] | Inhibition of dipeptide or tripeptide formation [2] | Kd [3] | Kd [4] | MIC E. coli ΔtolC [5] | MIC E. coli [6] | Bacteriostatic or bactericidal, time-kill [7] | IC50 [8] | Ki [8] |
| --- | --- | --- | --- | --- | --- | --- | --- | --- | --- | --- | --- |
| CC1CCN(Cc2csc(NC(=O)CNC(=O)c3ccc(Cl)c(Cl)c3)n2)CC1 | 64 µg/mL (≈ 145 µM) | about 4 s^−1 | about 14 s^−1 | no inhibition | 4.2 µM | 96.5 µM | 250 µg/mL (≈ 566 µM) | >500^a mg l^−1 | bactericidal | 47.5 µM | 3.3 µM |
| CC1CC(C)CN(Cc2csc(NC(=O)CNC(=O)c3ccc(C(C)(C)C)cc3)n2)C1 (stereo not shown) | 125 µg/mL (≈ 282 µM) | about 4 s^−1 | about 14 s^−1 | no inhibition | 37 µM | 44.6 µM | 125 µg/mL (≈ 282 µM) | >500^a mg l^−1 | bactericidal | 180 µM | 12 µM |

Reference: paper PMC6817905, “Inhibition of translation termination by small molecules targeting ribosomal release factors” (Scientific Reports, 2019)
